Compounds with a hit are over-represented: about 2.1% of the library has one in this group of screens.
Nrf2 ARE act: Nrf2 pathway activation; AREc32 ARE-luciferase reporter (MCF7-derived line), luminescence, 24 h; Potency, µM (titrated, usually from 46.1 µM), for the others: at the highest dose activation, usual class: activators; actives 0.31% (n = 410,000); also: potency is read from the fitted curve at half-maximal effect; % of control where 0% means no effect; nearly all actives have a fitted effect of over 65% in size
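Luminescent ARE reporter assay in AREc32_Fluc cells: overnight plating at 37 deg C, 24 hr compound incubation, Steady-Glo added, 30 min RT before reading.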
A549 tox-1: kills or reduces viability of A549 cells in Nrf2 counter-screen | A549 ARE-Fluc cells, CellTiter-Fluor viability, 18-24 h | Potency, µM (highest dose often 46 µM), for the others: top-dose activity change, negative = cytotoxicity, actives largely listed as inhibitors | actives 0.16% (n = 390,000) | AID 504648; also: potency is read from the fitted curve at half-maximal effect; % is scaled to controls: 0 for no effect and ±100 for the full control effect
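Cytotoxicity counterscreen: CellTiter-Fluor fluorescence was measured in A549 ARE_Fluc cells after 18-24 h of compound exposure in a concentration series. The subsequent BugLite luminescent read reports ARE-luciferase activity.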
Nrf2 block: blocks Nrf2 signaling. A549 ARE-Fluc reporter, luciferase luminescence, 18-24 h. Potency, µM (titrated, usually from 46 µM), for inactives: top-dose activity change, negative = inhibition, most hits filed as inhibitors. actives 2.1% (n = 360,000). AID 504444; also: potency is read from the fitted curve at half-maximal effect; % is scaled to controls: 0 for no effect and ±100 for the full control effect; nearly all actives have a fitted effect of over 60% in size
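Two sequential reads on A549 ARE_Fluc cells exposed to compound for 18-24 h: a CellTiter-Fluor fluorescence read for viability, then a luciferase luminescence read for Nrf2/ARE activity.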
miR-21 reporter: raises the signal of a miR-21 reporter | HeLa miR-21 FLuc reporter, luciferase, 48 h | Potency, µM (doses to about 38.3 µM), for the others: at the highest dose reporter change, positive = more light | 340,000 tested, under 10 active | AID 2288; active = well fitted rising curve with a large enough effect; inconclusive = small, poorly fitted or top-dose-only effect; inactive = no such curve, though single readings can be large or run the other way;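 also: % of control where 0% means no effect; miR-21 action dims this reporter so a rising signal means less miR-21 action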
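Using DMEM plus 10% FBS, HeLa miR-21-FLuc cells are incubated with test compounds (final up to about 40uM) for 48 hours; firefly luciferase signal is then imaged following reagent-mediated lysis.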
PTAP TSG101 blk: blocks PTAP/TSG101 interaction to inhibit HIV-1 budding; Potency, µM (titrated, usually from 115 µM), for inactives: at the highest dose activity change, negative = inhibition, hits mostly inhibitors; Q99816; Fluorescence polarization, FITC-PTAP peptide / Tsg101 binding; 340,000 tested, under 10 active; active = well fitted inhibition curve with a large enough effect in the main read-out, with a control signal flat, not every such curve was filed as active; inconclusive = small, poorly fitted or top-dose-only effect, or effect the other way, or a change in a side signal; inactive = no such curve, though single readings can be large or run the other way; also: potency is read from the fitted curve at half-maximal effect; % of control where 0% means no effect
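FP read-out: FITC-PTAP peptide, 50 nM final, binding Tsg101 binding domain, 10 uM final; 20 min, r.t.; 10 mM HEPES pH 7.5, 0.15 M NaCl, 0.01% Tween 20, 3 mM EDTA, 0.1 mM TCEP.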
GRP78 ERSR act: ER stress response induction in glioma. Potency, µM, for the others: at the highest dose activation, hits mostly activators. actives 0.02% (n = 420,000). U87-MG GRP78 promoter luciferase reporter, 16 h; also: potency is read from the fitted curve at half-maximal effect; series mostly up to about 76 µM; % of control where 0% means no effect; nearly all actives have a fitted effect of over 35% in size
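ERSR induction read as luciferase luminescence (Bright-Glo, 10 min at room temperature) in stably transfected human U87-MG glioma cells exposed to compounds for 16 h, using GRP78 as sensor.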
FLuc enzyme inh: blocks purified firefly luciferase in Nrf2 counterscreen. Potency, µM (titrated, usually from 57.5 µM), for the others: top-dose activity change, negative = inhibition, usual class: inhibitors. purified firefly luciferase, luminescence inhibition. actives 4% (n = 1,400). shares compounds with Nrf2 block; also: potency is read from the fitted curve at half-maximal effect; % is scaled to controls: 0 for no effect and ±100 for the full control effect; nearly all actives have a fitted effect of over 65% in size
A549 tox-2: A549 cytotoxicity, Nrf2 inhibitor counterscreen. AID 720523. A549 ARE-Fluc cells, cytotoxicity counterscreen. actives 2% (n = 1,400). Potency, µM (doses to about 46.1 µM), inactives show at the highest dose activity change, negative = cytotoxicity, actives largely listed as inhibitors. shares compounds with Nrf2 block;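 also: potency is read from the fitted curve at half-maximal effect; cells exposed to compounds for 18 to 24 hours; % is scaled to controls: 0 for no effect and ±100 for the full control effect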
ARE-Fluc inh: Nrf2 inhibition confirmed, A549 ARE-luciferase; actives 74% (n = 1,400); Potency, µM (series often up to 46.1 µM), for the others: at the highest dose activity change, negative = inhibition, hits mostly inhibitors; A549 ARE-firefly luciferase reporter, luminescence; AID 720524; shares compounds with Nrf2 block; also: potency is read from the fitted curve at half-maximal effect; % is scaled to controls: 0 for no effect and ±100 for the full control effect; nearly all actives have a fitted effect of over 65% in size
Starred values were filed as active, the others as inactive; ? = inconclusive; · = no result shown; [ ] = remark or other dose. Unless noted, calls follow the shape of the dose curve; as a rule, active = well fitted curve in the direction sought with a large enough effect; inconclusive = small, poorly fitted or top-dose-only effect, or another doubt; inactive = no such curve, though single readings can be large; an effect the other way counts as inactive or inconclusive.

Abbreviations – A = Nrf2 ARE act; B = A549 tox-1; C = Nrf2 block; D = miR-21 reporter; E = PTAP TSG101 blk; F = GRP78 ERSR act; G = FLuc enzyme inh; H = A549 tox-2; I = ARE-Fluc inh
1	O=C(Nc1ncc(Cc2ccc(C(F)(F)F)cc2)s1)c1ccc(-c2cccc([N+](=O)[O-])c2)o1
  A = -0.1%[9.22 µM]	B = -4.8%	C = 5.8µM*	D = -10.5%	E = -4.4%	F = -3.7%	G = 1.6%	H = -1.1%	I = 6.51µM*
2	COc1ccccc1N1CCN(C(=O)C2CCCN(S(=O)(=O)c3ccc(C)cc3)C2)CC1 (stereo not given)
  A = 0.1%	B = 4.3%	C = ?	D = ·	E = 0.5%	F = 2.4%	G = ·	H = ·	I = ·
3	COc1ccccc1N1CCN(C(=O)C2CCCN(S(=O)(=O)c3ccc4c(c3)CCCN4C(C)=O)C2)CC1 (stereo not given)
  A = 0.1%	B = -10.7%	C = 9.2µM*	D = ?	E = 2.3%	F = -7.4%	G = -0.7%	H = -0.6%	I = 9.2µM*
4	O=C(CNC(=O)C1CCCCC1)OCC(=O)c1ccc(C2CCCCC2)cc1
  A = ·	B = -0.7%	C = -0.9%	D = ·	E = ·	F = 0.6%	G = ·	H = ·	I = ·
5	Cc1ccc(-c2csc3ncnc(N4CCN(S(=O)(=O)c5ccc(C#N)cc5)CC4)c23)cc1
  A = -0.1%	B = ·	C = ·	D = ·	E = ·	F = -2.8%	G = ·	H = ·	I = ·
6	Cc1ccc(S(=O)(=O)N2CCN(c3ncnc4sccc34)CC2)cc1
  A = 1.5%	B = -7.7%	C = 7.31µM*	D = 16.1%	E = 0.7%	F = -0.1%	G = -2.0%	H = 4.0%	I = 8.2µM*
7	c1ccc(CC2CCN(c3ncnc4sccc34)CC2)cc1
  A = 0.1%	B = -5.4%	C = 5.17µM*	D = 10.1%	E = -0.4%	F = 3.5%	G = -28.6%	H = -2.8%	I = 3.66µM*
8	COc1ccc(/C=C/c2cc(-c3ccc(C)cc3)o[n+]2C)cc1
  A = -2.4%	B = ?	C = 8.2µM*	D = ?	E = 0.2%	F = -15.3%	G = -1.9%	H = ?	I = 2.91µM*
9	Cc1ccc(C(=O)OCC(=O)NC(=O)c2cccn2C)cc1
  A = -2.6%	B = 17.1%	C = 1.3µM*	D = -1.6%	E = -2.3%	F = -10.7%	G = -14.6%	H = 0.1%	I = 1.64µM*
10	COc1ccc(C(=O)Nc2ccc(S(=O)(=O)N3CCOCC3)cc2)cc1
  A = -0.7%	B = -3.5%	C = -17.3%	D = ·	E = -1.5%	F = 3.2%	G = ·	H = ·	I = ·
11	COc1ccc(C(=O)Nc2ccc(Cl)c(S(=O)(=O)N3CCOCC3)c2)cc1
  A = 2.6%	B = -13.7%	C = 9.2µM*	D = ·	E = 0.1%	F = -3.9%	G = 21.3µM*	H = -11.7%	I = ·
12	Cc1ccc(OCCCC(=O)Nc2ccc(Cl)c(S(=O)(=O)N3CCOCC3)c2)cc1
  A = 3.3%	B = -13.0%	C = ?	D = ·	E = 1.1%	F = -5.6%	G = ·	H = ·	I = ·
13	CC(=O)c1ccc(OCCCC(=O)Nc2ccc(Cl)c(S(=O)(=O)N3CCOCC3)c2)cc1
  A = 3.8%	B = -14.9%	C = 5.17µM*	D = ·	E = -0.1%	F = -2.1%	G = -13.1%	H = -2.3%	I = 7.31µM*
14	COc1ccc(C2=Nn3c(nnc3-c3ccccc3C)SC2)cc1
  A = ·	B = -13.4%	C = 13.4%	D = ·	E = ·	F = ·	G = ·	H = ·	I = ·
15	COc1ccc(CCN(C)C(=O)Cc2ccc(-c3ccccc3)cc2)cc1OC
  A = 2.6%	B = -0.8%	C = 5.8µM*	D = 13.5%	E = -4.0%	F = 2.2%	G = -0.2%	H = -2.2%	I = 18.4µM*
16	CCCCNC(=O)C(CC)n1c(SCc2cccc(F)c2)nc2ccncc21 (stereo not given)
  A = ·	B = -3.5%	C = ?	D = ·	E = ·	F = -3.4%	G = ·	H = ·	I = ·
17	COc1ccc(CCNC(=O)c2ccc(-c3cccc([N+](=O)[O-])c3)o2)cc1OC
  A = 0.6%	B = -0.7%	C = ?	D = 12.4%	E = -0.8%	F = -4.5%	G = ·	H = ·	I = ·
18	COc1ccc(CCNC(=O)c2cccc([N+](=O)[O-])c2)cc1OC
  A = -0.9%	B = 3.2%	C = 2.59µM*	D = ·	E = -9.5%	F = -4.9%	G = 3.4%	H = -9.4%	I = 3.66µM*
19	COc1ccc(S(=O)(=O)N2CCN(CCOc3ccc(Br)cc3)CC2)cc1OC
  A = 4.3%	B = -15.6%	C = 5.8µM*	D = ·	E = -2.1%	F = -1.6%	G = -11.1%	H = ?	I = 7.31µM*
20	O=C(C[n+]1ccncc1)c1ccc2ccccc2c1
  A = ·	B = ·	C = ·	D = ·	E = ·	F = -1.5%	G = ·	H = ·	I = ·
21	Oc1ccccc1C(Nc1nccs1)c1ccc2cccnc2c1O (stereo not given)
  A = 3.4%	B = ?	C = 5.8µM*	D = 21.2%	E = 1.8%	F = -7.3%	G = 0.9%	H = -26.7%	I = 13µM*
22	Oc1c(C(Nc2ccccn2)c2ccccn2)ccc2cccnc12 (stereo not given)
  A = 0.5%	B = -11.1%	C = ?	D = 10.2%	E = -1.3%	F = -3.9%	G = ·	H = ·	I = ·
23	Cc1nnsc1C(=O)NC1CCCc2c1cnn2-c1ccc(F)cc1F (stereo not given)
  A = 1.9%	B = -18.1%	C = 1.16µM*	D = 16.7%	E = -5.2%	F = 0.5%	G = -14.6%	H = -8.9%	I = 3.66µM*
24	Cc1nnsc1C(=O)NC1CCCc2c1cnn2-c1cc(F)cc(F)c1 (stereo not given)
  A = -1.0%	B = 2.3%	C = ?	D = -7.7%	E = ·	F = -0.7%	G = ·	H = ·	I = ·
25	Cc1ccc(-n2ncc3c2CCCC3NC(=O)c2ocnc2C)cc1C (stereo not given)
  A = -0.3%	B = -16.8%	C = 2.31µM*	D = 14.2%	E = -1.4%	F = -2.7%	G = -0.3%	H = -1.6%	I = 3.26µM*
26	CC(=O)NC1CCCc2c1cnn2-c1ccc(C(C)(C)C)cc1 (stereo not given)
  A = 0.1%	B = -8.3%	C = -24.3%	D = -5.2%	E = 1.9%	F = -4.1%	G = ·	H = ·	I = ·
27	Cc1cc(C(=O)NC2CCCc3c2cnn3-c2cccc(C)c2C)n(C)n1 (stereo not given)
  A = 0.2%	B = -20.7%	C = 0.206µM*	D = 22.7%	E = -0.7%	F = -1.6%	G = -0.7%	H = ?	I = 0.0206µM*
28	Cn1nccc1C(=O)NC1CCCc2c1cnn2-c1ccc(C(C)(C)C)cc1 (stereo not given)
  A = 3.1%	B = -19.1%	C = 0.731µM*	D = 23.7%	E = -1.9%	F = -0.8%	G = ?	H = -12.1%	I = 0.731µM*
29	O=Cc1ccc(O)cc1
  A = ·	B = ·	C = ·	D = ·	E = ·	F = -2.9%	G = ·	H = ·	I = ·
30	CC(C)Oc1ccc(-c2nc(-c3cccnc3)no2)cc1
  A = ·	B = ·	C = ·	D = ·	E = ·	F = -7.0%	G = ·	H = ·	I = ·
31	COc1ccc(OC)c(C2=Nn3c(nnc3-c3ccc(OC)c(OC)c3)SC2)c1
  A = ·	B = -4.1%	C = ?	D = ·	E = ·	F = ·	G = ·	H = ·	I = ·
32	Cc1cccc(NC2=NC(C)(C)N=C(N)N2)c1
  A = -0.4%	B = -7.6%	C = 5.17µM*	D = 18.6%	E = -2.1%	F = -2.3%	G = 2.2%	H = -5.8%	I = 4.61µM*
33	CCOc1ccc(-n2c(-c3ccc(Br)cc3)c[n+]3c2CCCCC3)cc1
  A = 0.6%	B = -14.1%	C = ?	D = ?	E = 3.1%	F = -3.1%	G = ·	H = ·	I = ·
34	CCOc1ccc(-n2c(-c3ccc(OC)cc3)c[n+]3c2CCCCC3)cc1
  A = 3.6%	B = ?	C = 2.59µM*	D = ?	E = -1.9%	F = -3.3%	G = 1.5%	H = -19.2%	I = 3.66µM*
35	CCOc1ccc(-n2c(-c3ccccc3)c[n+]3c2CCC3)cc1
  A = 0.0%	B = -5.8%	C = 2.31µM*	D = ?	E = -7.7%	F = -6.2%	G = 0.7%	H = -10.2%	I = 16.4µM*

Two compounds picked at random from those above:
Abbreviations – A = Nrf2 ARE act; B = A549 tox-1; C = Nrf2 block; D = miR-21 reporter; E = PTAP TSG101 blk; F = GRP78 ERSR act; G = FLuc enzyme inh; H = A549 tox-2; I = ARE-Fluc inh
26	CC(=O)NC1CCCc2c1cnn2-c1ccc(C(C)(C)C)cc1 (stereo not given)
  A = 0.1%	B = -8.3%	C = -24.3%	D = -5.2%	E = 1.9%	F = -4.1%	G = ·	H = ·	I = ·
32	Cc1cccc(NC2=NC(C)(C)N=C(N)N2)c1
  A = -0.4%	B = -7.6%	C = 5.17µM*	D = 18.6%	E = -2.1%	F = -2.3%	G = 2.2%	H = -5.8%	I = 4.61µM*

From PubChem
